Tests used:
Test in all cases: Full kinase panel inhibition by Example compounds 8 and 51 at 1 μM (Tables 11 to 14; kinase named in each table line)
[1] = target: full kinase panel (Homo sapiens, UniProt Q13470); conditions: TNK1
[2] = target: full kinase panel (Homo sapiens, UniProt P51957); conditions: NEK4
[3] = target: full kinase panel (Homo sapiens, UniProt Q8N4C8); conditions: MINK/MINK1
[4] = target: full kinase panel (Homo sapiens, UniProt Q9NRM7); conditions: LATS2
[5] = target: full kinase panel (Homo sapiens, UniProt P17948); conditions: FLT1/VEGFR1
[6] = target: full kinase panel (Homo sapiens, UniProt P21709); conditions: EPHA1
[7] = target: full kinase panel (Homo sapiens, UniProt P52333); conditions: JAK3
[8] = target: full kinase panel (Homo sapiens, UniProt Q9H2G2); conditions: SLK/STK2
[9] = target: full kinase panel (Homo sapiens, UniProt Q8IVH8); conditions: GLK/MAP4K3
[10] = target: full kinase panel (Homo sapiens, UniProt Q9Y2U5); conditions: MEKK2
[11] = target: full kinase panel (Homo sapiens, UniProt P54762); conditions: EPHB1
[12] = target: full kinase panel (Homo sapiens, UniProt Q13882); conditions: BRK
[13] = target: full kinase panel (Homo sapiens, UniProt P06241); conditions: FYN
[14] = target: full kinase panel (Homo sapiens, UniProt Q9H1R3); conditions: MLCK2/MYLK2
[15] = target: full kinase panel (Homo sapiens, UniProt P07333); conditions: FMS
[16] = target: full kinase panel (Homo sapiens, UniProt P54760); conditions: EPHB4
[17] = target: full kinase panel (Homo sapiens, UniProt P29320); conditions: EPHA3
[18] = target: full kinase panel (Homo sapiens, UniProt Q15759); conditions: P38B/MAPK11
[19] = target: full kinase panel (Homo sapiens, UniProt Q16584); conditions: MLK3/MAP3K11
[20] = target: full kinase panel (Homo sapiens, UniProt O43318); conditions: TAK1
[21] = target: full kinase panel (Homo sapiens, UniProt P35968); conditions: KDR/VEGFR2
[22] = target: full kinase panel (Homo sapiens, UniProt P16591); conditions: FER
[23] = target: full kinase panel (Homo sapiens, UniProt P04629); conditions: TRKA
[24] = target: full kinase panel (Homo sapiens, UniProt P11362); conditions: FGFR1
[25] = target: full kinase panel (Homo sapiens, UniProt Q9NYL2); conditions: ZAK/MLTK
[26] = target: full kinase panel (Homo sapiens, UniProt O94804); conditions: LOK/STK10
[27] = target: full kinase panel (Homo sapiens, UniProt Q15303); conditions: ERBB4/HER4
[28] = target: full kinase panel (Homo sapiens, UniProt P42681); conditions: TXK
[29] = target: full kinase panel (Homo sapiens, UniProt P54756); conditions: EPHA5
[30] = target: full kinase panel (Homo sapiens, UniProt P10721); conditions: C-KIT
[31] = target: full kinase panel (Homo sapiens, UniProt P51451); conditions: BLK
[32] = target: full kinase panel (Homo sapiens, UniProt P53667); conditions: LIMK1
[33] = target: full kinase panel (Homo sapiens, UniProt P04626); conditions: ERBB2/HER2
[34] = target: full kinase panel (Homo sapiens, UniProt Q7L7X3); conditions: TAOK1
[35] = target: full kinase panel (Homo sapiens, UniProt Q96S53); conditions: TESK2
[36] = target: full kinase panel (Homo sapiens, UniProt P53671); conditions: LIMK2
[37] = target: full kinase panel (Homo sapiens, UniProt Q9H2K8); conditions: TAOK3/JIK
[38] = target: full kinase panel (Homo sapiens, UniProt P07332); conditions: FES/FPS
[39] = target: full kinase panel (Homo sapiens, UniProt P54764); conditions: EPHA4
[40] = target: full kinase panel (Homo sapiens, UniProt Q15375); conditions: EPHA7

Amino acid sequences for entries named in this document (tags omitted). Residues count along the entry.
UniProt Q13470, whole entry: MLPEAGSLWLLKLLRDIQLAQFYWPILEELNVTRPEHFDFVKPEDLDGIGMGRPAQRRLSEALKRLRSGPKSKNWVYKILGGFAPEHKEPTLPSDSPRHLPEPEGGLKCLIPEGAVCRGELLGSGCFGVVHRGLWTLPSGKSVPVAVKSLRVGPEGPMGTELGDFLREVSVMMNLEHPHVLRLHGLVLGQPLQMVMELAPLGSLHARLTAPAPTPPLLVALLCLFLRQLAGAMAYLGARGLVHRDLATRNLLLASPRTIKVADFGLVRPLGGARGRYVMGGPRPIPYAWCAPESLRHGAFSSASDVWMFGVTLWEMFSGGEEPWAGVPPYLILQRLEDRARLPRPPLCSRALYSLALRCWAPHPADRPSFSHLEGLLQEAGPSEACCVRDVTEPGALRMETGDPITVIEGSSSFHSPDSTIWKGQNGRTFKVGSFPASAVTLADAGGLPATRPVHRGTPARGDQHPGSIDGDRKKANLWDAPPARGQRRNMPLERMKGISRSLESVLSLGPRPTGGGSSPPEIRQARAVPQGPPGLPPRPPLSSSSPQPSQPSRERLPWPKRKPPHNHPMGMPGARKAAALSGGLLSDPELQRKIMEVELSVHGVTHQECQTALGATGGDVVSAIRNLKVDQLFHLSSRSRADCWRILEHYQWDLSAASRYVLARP
UniProt P17948, 27-1338 limits assumed: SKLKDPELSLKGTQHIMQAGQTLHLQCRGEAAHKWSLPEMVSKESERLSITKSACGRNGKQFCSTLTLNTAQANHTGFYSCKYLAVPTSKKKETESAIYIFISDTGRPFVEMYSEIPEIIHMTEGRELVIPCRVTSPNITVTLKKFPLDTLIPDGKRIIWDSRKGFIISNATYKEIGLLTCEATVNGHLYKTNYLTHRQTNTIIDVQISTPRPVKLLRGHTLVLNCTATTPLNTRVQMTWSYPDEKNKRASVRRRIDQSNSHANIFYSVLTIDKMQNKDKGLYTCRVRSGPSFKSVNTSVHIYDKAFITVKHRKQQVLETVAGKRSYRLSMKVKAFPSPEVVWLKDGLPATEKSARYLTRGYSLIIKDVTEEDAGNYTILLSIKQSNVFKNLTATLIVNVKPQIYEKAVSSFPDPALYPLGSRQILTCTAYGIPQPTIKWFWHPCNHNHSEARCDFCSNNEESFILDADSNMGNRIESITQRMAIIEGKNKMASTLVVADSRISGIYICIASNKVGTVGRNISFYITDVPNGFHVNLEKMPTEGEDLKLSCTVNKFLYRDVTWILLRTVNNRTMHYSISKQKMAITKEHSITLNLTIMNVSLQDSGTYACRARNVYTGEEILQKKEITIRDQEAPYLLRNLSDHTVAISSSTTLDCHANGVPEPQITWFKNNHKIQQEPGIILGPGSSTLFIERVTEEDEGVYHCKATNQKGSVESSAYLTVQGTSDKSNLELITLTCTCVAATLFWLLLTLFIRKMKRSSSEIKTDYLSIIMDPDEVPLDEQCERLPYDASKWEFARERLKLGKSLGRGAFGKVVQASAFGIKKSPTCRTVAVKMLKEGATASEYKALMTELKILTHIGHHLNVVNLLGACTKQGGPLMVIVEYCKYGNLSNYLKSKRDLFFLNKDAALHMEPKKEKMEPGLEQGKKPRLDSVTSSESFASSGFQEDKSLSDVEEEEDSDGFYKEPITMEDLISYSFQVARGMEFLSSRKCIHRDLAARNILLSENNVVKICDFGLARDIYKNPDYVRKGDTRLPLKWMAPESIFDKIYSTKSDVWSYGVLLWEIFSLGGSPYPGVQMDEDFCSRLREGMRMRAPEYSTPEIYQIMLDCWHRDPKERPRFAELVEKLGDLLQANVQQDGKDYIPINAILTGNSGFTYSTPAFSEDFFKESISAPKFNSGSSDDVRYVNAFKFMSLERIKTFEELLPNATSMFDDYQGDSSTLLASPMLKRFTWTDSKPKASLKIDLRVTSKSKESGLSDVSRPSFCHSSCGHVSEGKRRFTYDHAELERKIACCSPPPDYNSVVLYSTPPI
UniProt Q9H2G2, whole entry: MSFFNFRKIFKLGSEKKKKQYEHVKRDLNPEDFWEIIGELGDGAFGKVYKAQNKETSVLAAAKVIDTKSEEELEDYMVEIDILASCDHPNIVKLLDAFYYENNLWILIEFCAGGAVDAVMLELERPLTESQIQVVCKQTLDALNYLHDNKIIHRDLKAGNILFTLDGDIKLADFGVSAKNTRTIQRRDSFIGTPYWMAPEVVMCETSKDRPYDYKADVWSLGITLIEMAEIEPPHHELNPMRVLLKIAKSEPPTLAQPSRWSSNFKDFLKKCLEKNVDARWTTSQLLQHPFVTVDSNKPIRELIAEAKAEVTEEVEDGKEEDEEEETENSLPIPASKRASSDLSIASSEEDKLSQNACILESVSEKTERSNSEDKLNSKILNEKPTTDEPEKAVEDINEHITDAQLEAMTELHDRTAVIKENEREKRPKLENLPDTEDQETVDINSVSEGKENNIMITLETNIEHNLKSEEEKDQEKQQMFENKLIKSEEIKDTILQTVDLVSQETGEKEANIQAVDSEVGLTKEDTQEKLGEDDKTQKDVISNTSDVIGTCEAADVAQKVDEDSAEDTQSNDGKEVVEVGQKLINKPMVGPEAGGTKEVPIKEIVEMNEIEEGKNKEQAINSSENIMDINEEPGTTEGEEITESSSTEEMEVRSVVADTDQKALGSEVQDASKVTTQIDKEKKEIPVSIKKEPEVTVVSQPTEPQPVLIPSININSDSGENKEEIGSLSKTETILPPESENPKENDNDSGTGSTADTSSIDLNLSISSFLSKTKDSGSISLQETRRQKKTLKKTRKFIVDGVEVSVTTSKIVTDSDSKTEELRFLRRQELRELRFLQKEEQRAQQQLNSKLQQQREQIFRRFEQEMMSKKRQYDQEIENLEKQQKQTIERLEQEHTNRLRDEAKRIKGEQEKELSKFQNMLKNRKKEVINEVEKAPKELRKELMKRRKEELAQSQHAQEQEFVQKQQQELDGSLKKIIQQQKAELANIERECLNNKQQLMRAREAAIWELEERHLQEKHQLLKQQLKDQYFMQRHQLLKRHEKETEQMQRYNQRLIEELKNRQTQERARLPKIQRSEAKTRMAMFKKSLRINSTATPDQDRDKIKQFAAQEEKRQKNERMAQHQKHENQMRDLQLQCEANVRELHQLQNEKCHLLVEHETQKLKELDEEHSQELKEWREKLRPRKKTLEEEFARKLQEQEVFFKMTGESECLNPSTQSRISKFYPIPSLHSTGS
UniProt Q8IVH8, whole entry: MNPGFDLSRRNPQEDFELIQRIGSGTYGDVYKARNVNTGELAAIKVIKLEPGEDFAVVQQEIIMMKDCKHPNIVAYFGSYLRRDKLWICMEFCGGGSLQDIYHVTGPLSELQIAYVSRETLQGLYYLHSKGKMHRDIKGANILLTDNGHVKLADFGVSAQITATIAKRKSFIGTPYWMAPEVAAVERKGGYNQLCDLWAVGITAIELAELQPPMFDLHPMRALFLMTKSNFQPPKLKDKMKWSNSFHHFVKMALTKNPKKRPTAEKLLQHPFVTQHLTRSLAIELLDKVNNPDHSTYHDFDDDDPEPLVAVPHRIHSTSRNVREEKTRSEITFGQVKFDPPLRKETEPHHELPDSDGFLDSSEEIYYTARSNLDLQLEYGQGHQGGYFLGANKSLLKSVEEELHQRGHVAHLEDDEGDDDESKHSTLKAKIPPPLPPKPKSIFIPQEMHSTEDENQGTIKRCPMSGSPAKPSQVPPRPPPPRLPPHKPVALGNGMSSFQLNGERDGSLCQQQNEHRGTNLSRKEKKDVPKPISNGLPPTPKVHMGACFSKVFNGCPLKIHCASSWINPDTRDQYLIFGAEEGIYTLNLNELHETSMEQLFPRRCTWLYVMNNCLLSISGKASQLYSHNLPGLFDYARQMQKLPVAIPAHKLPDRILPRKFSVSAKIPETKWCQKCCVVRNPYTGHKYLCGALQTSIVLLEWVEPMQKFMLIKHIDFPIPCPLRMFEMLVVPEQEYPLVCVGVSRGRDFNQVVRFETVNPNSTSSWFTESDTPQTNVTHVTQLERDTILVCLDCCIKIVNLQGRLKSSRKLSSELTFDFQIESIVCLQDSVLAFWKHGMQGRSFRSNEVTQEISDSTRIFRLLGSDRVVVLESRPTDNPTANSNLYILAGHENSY
UniProt Q96S53, whole entry: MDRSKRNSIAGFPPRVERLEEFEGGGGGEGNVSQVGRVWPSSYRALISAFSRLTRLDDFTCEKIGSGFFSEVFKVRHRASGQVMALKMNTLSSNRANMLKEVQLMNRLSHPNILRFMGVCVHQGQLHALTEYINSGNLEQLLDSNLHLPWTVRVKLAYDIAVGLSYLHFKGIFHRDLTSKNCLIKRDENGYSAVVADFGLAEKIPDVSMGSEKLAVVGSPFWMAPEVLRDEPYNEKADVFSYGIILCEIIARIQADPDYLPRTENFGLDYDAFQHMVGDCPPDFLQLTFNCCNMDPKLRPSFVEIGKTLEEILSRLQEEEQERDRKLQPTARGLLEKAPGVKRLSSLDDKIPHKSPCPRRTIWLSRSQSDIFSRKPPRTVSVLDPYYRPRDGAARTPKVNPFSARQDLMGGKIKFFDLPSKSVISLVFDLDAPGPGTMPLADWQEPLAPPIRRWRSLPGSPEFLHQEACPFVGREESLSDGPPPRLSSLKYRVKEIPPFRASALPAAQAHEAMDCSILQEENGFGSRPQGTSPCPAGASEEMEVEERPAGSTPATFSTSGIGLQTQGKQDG
UniProt Q9H2K8, whole entry: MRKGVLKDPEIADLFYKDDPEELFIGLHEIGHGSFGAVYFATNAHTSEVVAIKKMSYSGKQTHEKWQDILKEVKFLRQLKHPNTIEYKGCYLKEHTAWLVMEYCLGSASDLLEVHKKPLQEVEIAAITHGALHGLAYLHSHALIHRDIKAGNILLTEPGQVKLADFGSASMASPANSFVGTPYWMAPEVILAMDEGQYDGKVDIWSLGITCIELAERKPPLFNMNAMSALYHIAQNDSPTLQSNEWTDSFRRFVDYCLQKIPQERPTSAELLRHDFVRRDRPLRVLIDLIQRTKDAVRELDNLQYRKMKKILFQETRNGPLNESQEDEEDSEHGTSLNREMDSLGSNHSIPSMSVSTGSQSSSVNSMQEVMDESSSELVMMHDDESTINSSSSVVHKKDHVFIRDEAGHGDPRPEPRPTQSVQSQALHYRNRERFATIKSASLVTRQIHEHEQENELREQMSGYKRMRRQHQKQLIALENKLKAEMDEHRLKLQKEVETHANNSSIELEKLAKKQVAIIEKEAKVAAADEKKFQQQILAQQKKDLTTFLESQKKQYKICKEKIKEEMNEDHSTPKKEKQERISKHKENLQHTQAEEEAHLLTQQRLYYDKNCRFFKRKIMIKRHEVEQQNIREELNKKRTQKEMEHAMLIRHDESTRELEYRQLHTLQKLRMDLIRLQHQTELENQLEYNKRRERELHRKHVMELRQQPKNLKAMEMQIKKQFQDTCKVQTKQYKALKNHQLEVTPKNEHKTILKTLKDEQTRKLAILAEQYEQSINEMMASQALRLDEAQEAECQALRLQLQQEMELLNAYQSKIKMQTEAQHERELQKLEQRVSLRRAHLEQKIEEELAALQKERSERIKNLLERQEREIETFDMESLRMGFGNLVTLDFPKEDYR
UniProt P07332, whole entry: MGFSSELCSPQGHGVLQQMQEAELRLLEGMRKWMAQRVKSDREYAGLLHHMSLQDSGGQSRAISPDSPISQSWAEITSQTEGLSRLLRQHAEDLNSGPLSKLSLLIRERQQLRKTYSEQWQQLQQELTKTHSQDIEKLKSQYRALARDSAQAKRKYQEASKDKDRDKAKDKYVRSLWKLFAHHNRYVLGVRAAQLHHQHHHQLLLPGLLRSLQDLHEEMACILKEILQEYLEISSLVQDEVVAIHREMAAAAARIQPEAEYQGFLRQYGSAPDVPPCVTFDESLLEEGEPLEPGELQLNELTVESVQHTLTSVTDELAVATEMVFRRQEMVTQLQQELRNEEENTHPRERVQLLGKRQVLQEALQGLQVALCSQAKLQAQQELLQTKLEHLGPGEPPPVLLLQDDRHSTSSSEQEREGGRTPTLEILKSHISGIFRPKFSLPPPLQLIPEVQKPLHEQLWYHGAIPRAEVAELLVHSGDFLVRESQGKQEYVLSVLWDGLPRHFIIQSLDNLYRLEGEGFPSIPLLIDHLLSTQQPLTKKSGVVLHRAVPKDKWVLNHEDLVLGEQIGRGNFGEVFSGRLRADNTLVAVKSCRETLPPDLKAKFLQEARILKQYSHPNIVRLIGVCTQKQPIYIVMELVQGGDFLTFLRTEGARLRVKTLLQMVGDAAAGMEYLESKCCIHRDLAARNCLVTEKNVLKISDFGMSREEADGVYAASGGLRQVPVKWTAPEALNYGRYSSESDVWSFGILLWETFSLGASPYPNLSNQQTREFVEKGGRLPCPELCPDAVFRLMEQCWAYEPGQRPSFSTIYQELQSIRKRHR

`Cc1ccc(Nc2ncc3c(n2)C2(CC2)C(=O)N(c2cc(NC(=O)c4cccc(C(F)(F)F)c4)ccc2C)C3)cn1` was tested, and the “kinase inhibition (residual enzyme activity)” value [1] was “◯ (residual enzyme activity values were 40% or less, i.e., inhibited by 60% or more)”, the “kinase inhibition (residual enzyme activity)” value [2] was “◯ (residual enzyme activity values were 40% or less, i.e., inhibited by 60% or more)” and the “kinase inhibition (residual enzyme activity)” value [3] was “◯ (residual enzyme activity values were 40% or less, i.e., inhibited by 60% or more)”. The “kinase inhibition (residual enzyme activity)” value [4] was “◯ (residual enzyme activity values were 40% or less, i.e., inhibited by 60% or more)”, the “kinase inhibition (residual enzyme activity)” value [5] was “◯ (residual enzyme activity values were 40% or less, i.e., inhibited by 60% or more)” and the “kinase inhibition (residual enzyme activity)” value [6] was “◯ (residual enzyme activity values were 40% or less, i.e., inhibited by 60% or more)”. The “kinase inhibition (residual enzyme activity)” value [7] was “◯ (residual enzyme activity values were 40% or less, i.e., inhibited by 60% or more)”, the “kinase inhibition (residual enzyme activity)” value [8] was “◯ (residual enzyme activity values were 40% or less, i.e., inhibited by 60% or more)” and the “kinase inhibition (residual enzyme activity)” value [9] was “◯ (residual enzyme activity values were 40% or less, i.e., inhibited by 60% or more)”. For the same molecule, the “kinase inhibition (residual enzyme activity)” value [10] was “◯ (residual enzyme activity values were 40% or less, i.e., inhibited by 60% or more)”, the “kinase inhibition (residual enzyme activity)” value [11] was “◯ (residual enzyme activity values were 40% or less, i.e., inhibited by 60% or more)” and the “kinase inhibition (residual enzyme activity)” value [12] was “◯ (residual enzyme activity values were 40% or less, i.e., inhibited by 60% or more)”. The “kinase inhibition (residual enzyme activity)” value [13] was “◯ (residual enzyme activity values were 40% or less, i.e., inhibited by 60% or more)”, the “kinase inhibition (residual enzyme activity)” value [14] was “◯ (residual enzyme activity values were 40% or less, i.e., inhibited by 60% or more)” and the “kinase inhibition (residual enzyme activity)” value [15] was “◯ (residual enzyme activity values were 40% or less, i.e., inhibited by 60% or more)”. The “kinase inhibition (residual enzyme activity)” value [16] was “◯ (residual enzyme activity values were 40% or less, i.e., inhibited by 60% or more)”, the “kinase inhibition (residual enzyme activity)” value [17] was “◯ (residual enzyme activity values were 40% or less, i.e., inhibited by 60% or more)” and the “kinase inhibition (residual enzyme activity)” value [18] was “◯ (residual enzyme activity values were 40% or less, i.e., inhibited by 60% or more)”. For the same molecule, the “kinase inhibition (residual enzyme activity)” value [19] was “◯ (residual enzyme activity values were 40% or less, i.e., inhibited by 60% or more)”, the “kinase inhibition (residual enzyme activity)” value [20] was “◯ (residual enzyme activity values were 40% or less, i.e., inhibited by 60% or more)” and the “kinase inhibition (residual enzyme activity)” value [21] was “◯ (residual enzyme activity values were 40% or less, i.e., inhibited by 60% or more)”. For the same molecule, the “kinase inhibition (residual enzyme activity)” value [22] was “◯ (residual enzyme activity values were 40% or less, i.e., inhibited by 60% or more)”, the “kinase inhibition (residual enzyme activity)” value [23] was “◯ (residual enzyme activity values were 40% or less, i.e., inhibited by 60% or more)” and the “kinase inhibition (residual enzyme activity)” value [24] was “◯ (residual enzyme activity values were 40% or less, i.e., inhibited by 60% or more)”. The “kinase inhibition (residual enzyme activity)” value [25] was “◯ (residual enzyme activity values were 40% or less, i.e., inhibited by 60% or more)”, the “kinase inhibition (residual enzyme activity)” value [26] was “◯ (residual enzyme activity values were 40% or less, i.e., inhibited by 60% or more)” and the “kinase inhibition (residual enzyme activity)” value [27] was “◯ (residual enzyme activity values were 40% or less, i.e., inhibited by 60% or more)”. The “kinase inhibition (residual enzyme activity)” value [28] was “◯ (residual enzyme activity values were 40% or less, i.e., inhibited by 60% or more)”, the “kinase inhibition (residual enzyme activity)” value [29] was “◯ (residual enzyme activity values were 40% or less, i.e., inhibited by 60% or more)” and the “kinase inhibition (residual enzyme activity)” value [30] was “◯ (residual enzyme activity values were 40% or less, i.e., inhibited by 60% or more)”. For the same molecule, the “kinase inhibition (residual enzyme activity)” value [31] was “◯ (residual enzyme activity values were 40% or less, i.e., inhibited by 60% or more)”, the “kinase inhibition (residual enzyme activity)” value [32] was “◯ (residual enzyme activity values were 40% or less, i.e., inhibited by 60% or more)” and the “kinase inhibition (residual enzyme activity)” value [33] was “◯ (residual enzyme activity values were 40% or less, i.e., inhibited by 60% or more)”. The “kinase inhibition (residual enzyme activity)” value [34] was “◯ (residual enzyme activity values were 40% or less, i.e., inhibited by 60% or more)”, the “kinase inhibition (residual enzyme activity)” value [35] was “◯ (residual enzyme activity values were 40% or less, i.e., inhibited by 60% or more)” and the “kinase inhibition (residual enzyme activity)” value [36] was “◯ (residual enzyme activity values were 40% or less, i.e., inhibited by 60% or more)”. For the same molecule, the “kinase inhibition (residual enzyme activity)” value [37] was “◯ (residual enzyme activity values were 40% or less, i.e., inhibited by 60% or more)”, the “kinase inhibition (residual enzyme activity)” value [38] was “◯ (residual enzyme activity values were 40% or less, i.e., inhibited by 60% or more)” and the “kinase inhibition (residual enzyme activity)” value [39] was “◯ (residual enzyme activity values were 40% or less, i.e., inhibited by 60% or more)”. For the same molecule, the “kinase inhibition (residual enzyme activity)” value [40] was “◯ (residual enzyme activity values were 40% or less, i.e., inhibited by 60% or more)”.

Source: patent US20260382623A1, “NOVEL COMPOUND FOR INHIBITING PROTEIN KINASES AND PHARMACEUTICAL COMPOSITION COMPRISING SAME” (published 2026)
